## scFv variants of Ab-95 (light chain) against a SARS-CoV-2 spike peptide

All variants were tested on one target, the spike HR2 peptide PDVDLGDISGINAS (SARS-CoV-2).

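AAYL52 was designed without a model: most single CDR substitutions and a random sample of double and triple ones. The assay is AlphaSeq: two haploid yeast populations carry antibody and antigen on their surface. Binding brings cells together so that they mate, and sequencing counts the barcode pairs among the diploids. Scores were corrected for input abundance and mapped to Kd with protein pairs of known affinity run in the same pool. There are three technical replicates.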

Parent scFv Ab-95: VH joined to VL by a (GGGGS)3 linker. Changes lie in the light chain CDRs alone.
VH: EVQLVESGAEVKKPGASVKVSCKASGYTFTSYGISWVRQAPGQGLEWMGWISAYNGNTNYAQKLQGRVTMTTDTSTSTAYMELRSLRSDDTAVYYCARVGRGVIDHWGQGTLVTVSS
VL: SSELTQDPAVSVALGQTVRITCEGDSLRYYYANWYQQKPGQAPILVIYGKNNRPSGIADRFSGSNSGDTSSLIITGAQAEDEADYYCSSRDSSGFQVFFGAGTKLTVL

Variants are written as CDR1, CDR2 and CDR3 of the light chain (limits as in the source). Parent: EGDSLRYYYAN, GKNNRPS, SSRDSSGFQVF. This list gathers variants with a substitution at R28 (VL, numbered from residue 1). Affinities are written as log10 Kd with Kd in nM; a lower number is a better binder. Replicates are averaged; those with no signal do not enter the mean. Where no diploid with the target was found in any replicate, the entry reads "nd": below detection, most likely a poor binder, though not proof of it. Parent in this assay: reference entry 2.31, copy in this library 2.25. Empty control strains, which show no peptide, gave a signal in 28% of pairings with library AAYL52; the median was 3.91 and 95% of these signals were weaker than 2.90. No background was subtracted. The control count says in how many pairings with the empty strains this scFv gave a signal.

Variant EGDSLMYYYMN | GKNNRPS | SSRDSSGFQEF showed 4.02 (1 of 3 replicates; controls 4 of 9).
Variant ELDSLPYYYAN | GKNNRPS | SSRDSSGQQVF showed 2.53 (3 of 3 replicates; controls 5 of 9).
Variant EGDSLHYYYAN | GKNNDPH | SSRDSSGFQVF showed 2.82 (2 of 3 replicates; controls 0 of 9).
Variant EWDSLHYYSAN | GKNNRPS | SSRDSSGFQVF showed 3.03 (3 of 3 replicates; controls 4 of 9).
Variant EGDSLAYYYAN | GKNNRPY | ESRDSSGFQVF showed 2.24 (3 of 3 replicates; controls 0 of 9).
Variant EGDSLYYYYAN | GLNNRPS | SSRQSSGFQVF showed 3.64 (2 of 3 replicates; controls 0 of 9).
Variant EGDSLEYYYAN | GKNNRPS | ISMDSSGFQVF showed nd (0 of 3 replicates; controls 2 of 9).
Variant EGDSLPYYYAN | GKNNRPS | SSRDSSGAMVF showed 2.90 (3 of 3 replicates; controls 2 of 9).
Variant EGDTLFYYYAN | GKNNRPS | SSRDSSGFQVF showed 3.52 (2 of 3 replicates; controls 1 of 9).
Variant EGDSLHYYYAN | TKNNRPS | ASRDSSGFQVF showed 3.92 (1 of 3 replicates; controls 0 of 9).
Variant EGDSLPYYYAN | GKNLRPS | SSRYSSGFQVF showed 2.93 (3 of 3 replicates; controls 1 of 9).
Variant EADSLIYYYAN | GKNNLPS | SSRDSSGFQVF showed 3.32 (1 of 3 replicates; controls 2 of 9).
Variant EGDSKTYYYAN | GKNNRPS | SSRDSSGGQVF showed nd (0 of 3 replicates; controls 2 of 9).
Variant EGDSLYYYYAN | GKNNRPM | SSRDSSGFYVF showed 2.91 (3 of 3 replicates; controls 4 of 9).
Variant EGDSLTYYYLN | GKNNRFS | SSRDSSGFQVF showed 4.86 (1 of 3 replicates; controls 3 of 9).
Variant EGDSLAYYYAN | GKNNRPM | SSRDSSGRQVF showed 3.30 (3 of 3 replicates; controls 0 of 9).
Variant EGDSLIYYYAN | NKNNRPS | SSLDSSGFQVF showed 2.81 (3 of 3 replicates; controls 2 of 9).
Variant EGDSLDYYYAN | GKNNRPS | KSRDSSGFQVY showed 4.55 (1 of 3 replicates; controls 1 of 9).
Variant EGDSLNYYYAN | GKNNRKS | NSRDSSGFQVF showed nd (0 of 3 replicates; controls 1 of 9).
Variant YGDSLVYYEAN | GKNNRPS | SSRDSSGFQVF showed 1.94 (3 of 3 replicates; controls 3 of 9).
Variant EGDSLWYYYAN | GKNNRPS | SSRDSQGFQKF showed 4.32 (3 of 3 replicates; controls 3 of 9).
Variant EGDSLQYYYAN | GLNNRPS | SSRDSSPFQVF showed 3.80 (1 of 3 replicates; controls 0 of 9).
Variant EGDSLMYYYAN | GKNNRPS | SSRQSSGFGVF showed 4.01 (3 of 3 replicates; controls 2 of 9).
Variant EGCGLCYYYAN | GKNNRPS | SSRDSSGFQVF showed 2.51 (3 of 3 replicates; controls 4 of 9).
Variant EGDSLFYYYAN | GKNNRPS | SSRDNSGFQVF showed 3.62 (3 of 3 replicates; controls 4 of 9).
Variant EGDSLKYYYAN | QKNNRPS | SSRDSSGFQMF showed 3.67 (1 of 3 replicates; controls 1 of 9).
Variant EGDSLSYYYAN | GKNNRAS | SSRDSSGTQVF showed 2.81 (3 of 3 replicates; controls 3 of 9).
Variant EGDSLSYYYAN | GKNNRPS | SSRDSSGFQVV showed 2.88 (3 of 3 replicates; controls 3 of 9).
Variant EGMSLPYYYAN | GKNTRPS | SSRDSSGFQVF showed 3.13 (3 of 3 replicates; controls 1 of 9).
Variant EGDSLGYYYAN | GKSNRPS | SSRDSSGFQEF showed 5.34 (1 of 3 replicates; controls 3 of 9).
Variant EGDSLEYYYAN | GKNNRPS | SSLDSSNFQVF showed 5.45 (1 of 3 replicates; controls 1 of 9).
Variant EGDSLTYYYMN | GKNNRPS | SSRDSSGFQVG showed 3.48 (1 of 3 replicates; controls 3 of 9).
Variant EGDSLEYYDAN | GKGNRPS | SSRDSSGFQVF showed 0.86 (3 of 3 replicates; controls 1 of 9).
Variant EGDSLSYYYAN | GKNNHPS | SSRDSSGFQCF showed 3.91 (1 of 3 replicates; controls 1 of 9).
Variant EGDSLAYYYAM | GKNNRPS | SSRDSSTFQVF showed 3.48 (1 of 3 replicates; controls 2 of 9).

The closing 2 entries, repeated:

With EGDSLSYYYAN | GKNNHPS | SSRDSSGFQCF the result was 3.91 (1 of 3 replicates; controls 1 of 9).
With EGDSLAYYYAM | GKNNRPS | SSRDSSTFQVF the result was 3.48 (1 of 3 replicates; controls 2 of 9).

Data: MIT Lincoln Laboratory AlphaSeq set, Engelhart et al. 2022, doi:10.1038/s41597-022-01779-4, as distributed in FLAb.